Target: PLK-1 (Homo sapiens (Human), UniProt P53350)
Test: Biochemical assay for inhibitors of PLK-1 kinase activity (trans-phosphorylation, 33P-ATP, Dowex resin)
Settings: PLK-1 3 nM, 40 microM ATP, 85 microM alpha-casein
From the text: Reagents/Assay Conditions
• i. Dowex Resin Preparation
Three cycles of mixing are done immediately after the addition of the resin.

Sequences of proteins named here, by UniProt entry; tags and fusion partners are left off. Residues count along the entry.
UniProt P53350, 2-345: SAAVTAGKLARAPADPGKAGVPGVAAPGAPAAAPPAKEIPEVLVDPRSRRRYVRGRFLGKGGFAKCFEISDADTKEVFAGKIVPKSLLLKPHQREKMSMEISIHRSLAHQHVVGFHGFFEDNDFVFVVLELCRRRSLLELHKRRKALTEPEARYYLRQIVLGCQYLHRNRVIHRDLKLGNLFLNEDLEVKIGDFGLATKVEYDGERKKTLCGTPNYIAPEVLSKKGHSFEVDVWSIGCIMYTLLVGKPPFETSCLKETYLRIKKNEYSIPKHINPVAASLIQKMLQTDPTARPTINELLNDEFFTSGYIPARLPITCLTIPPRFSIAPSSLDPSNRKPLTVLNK

`CN1CCN(c2ccc(OC(F)(F)F)c(Nc3ncc4c(n3)-c3c(c(C(N)=O)nn3C)CC4)c2)CC1` [Code A51B1C1Z, 1-Methyl-8-[5-(4-methyl-piperazin-1-yl)-2-trifluoromethoxy-phenylamino]-4,5-dihydro-1H-pyrazolo[4,3-h]quinazoline-3-carboxamide] showed an IC50 of 1 nM.
